Measured values: patent US20090172842

By UniProt entry, the sequences of proteins in these tests, tags left out. Residues count along the entry.
UniProt P69249, 58-180: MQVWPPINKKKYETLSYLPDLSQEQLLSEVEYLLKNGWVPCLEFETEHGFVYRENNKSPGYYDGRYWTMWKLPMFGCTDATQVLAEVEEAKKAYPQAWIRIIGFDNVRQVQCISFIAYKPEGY

Target: endogenous tobacco RUBISCO small subunit (UniProt P69249)

“Amaranthus edulis RUBISCO large subunit with C-terminal 6-His tag, product of the chloroplast transgene cpAErbcL (pTCP103 tobacco)” was tested, and the RUBISCO Activity (RuBP-dependent 14CO2 fixation), pTCP103-1 tobacco crude extract was 0.15 mU/mg and the RUBISCO Activity (RuBP-dependent 14CO2 fixation), pTCP103-1 tobacco purified RUBISCO was 4.6 mU/mg.
